Patent publication USRE48461E1, “Modulation of androgen receptor expression” (Ionis Pharmaceuticals, Inc., priority 2012, dated 2021)

Assays:
Assay type in all cases: cell-based, human
AR mRNA [1] = experiment: Time-course AR mRNA expression in C4-2B cells (8, 24, 48 hours)
AR mRNA [2] = experiment: AR RNA expression in C4-2 cells (complete, CSS+DHT medium); details: 48 hrs
full length AR mRNA [3] = experiment: Full-length AR RNA in VCaP cells (complete, CSS+DHT medium); details: 48 hrs
AR mRNA [4] = experiment: AR RNA expression in LNCaP cells (complete, CSS, CSS+DHT medium); details: for Percent expression of AR in LNCaP cells cultured in complete medium: 48 hours
Protocol: Cells were plated at 1,000 cells per well. ISIS 560131 or ISIS 569236 was added individually at 0.04 μM, 0.2 μM, 1.0 μM, or 5.0 μM. ISIS 549148 was included as a negative control. MDV3100 was added a dose of 0.04 μM, 0.2 μM, 1.0 μM, or 5.0 μM. μM in a separate set of cells. After an incubation period of 48 hours, RNA levels of AR, PSA and TMPRSS2 were measured.
Cells were plated at 2,000 cells per well and cultured in phenol red-free RPMI supplemented with 5% charcoal stripped serum (Gibco) media for 16 hours. ISIS 560131 or ISIS 569236 was added individually at 0.04 μM, 0.2 μM, 1.0 μM, or 5.0 μM to each cell set. ISIS 549148 was included as a negative control. MDV3100 was added at 0.04 μM, 0.2 μM, 1.0 μM, or 5.0 μM in a separate set of cells. After an incubation period of 4 hrs, DHT was added to the medium to a final concentration of 1 nM as indicated. RNAs were collected 48 hrs later and levels of AR, PSA and TMPRSS2 were measured. In the absence of DHT, AR expression in LNCaP cells was 95%, PSA expression was 7% and TMPRSS2 expression was 24% compared to the untreated control.

AR mRNA [5] = experiment: AR mRNA levels in LMR20 cells (with/without DHT or R1881); details: R1881 10 nM 72 hrs, ASO 5.0 μM
Protocol: (§1) LMR20 cells were plated at 1,500 cells per well in phenol red-free medium with CSS. ISIS 560131, ISIS 549458, ISIS 569236, and the LNA gapmer ISIS 554221 were individually added to the culture media at 0.04 μM, 0.2 μM, 1.0 μM, or 5.0 μM concentration. ISIS 549148, which has no known human target sequence, was included as a control. MDV3100 was added on day 1 at a dose of 10 nM to a set of cells, and served as a control. DHT was added on day 1 at a dose of 10 nM for 72 hrs to one set of cells also treated with each of the antisense oligonucleotides or MDV3100. R1881 was added on day 1 at a dose of 10 nM for 72 hrs to another set of cells also treated with each of the antisense oligonucleotides or MDV3100. mRNA levels of AR, prostate-specific antigen (PSA) and TMPRSS2, an androgen-regulated gene (Lin, B., et al., Cancer Res. 1999. 59: 4180), were measured. Results are presented in Tables 43-45 as mRNA levels expressed as a percentage of the baseline values. mRNA levels may be lowered or increased after treatment.

TMPRSS2 mRNA [6] = experiment: TMPRSS2 expression in VCaP cells; details: complete medium, 1.0 μM, 48 hrs
TMPRSS2 mRNA [7] = experiment: TMPRSS2 mRNA levels in LMR20 cells; details: R1881 10 nM 72 hrs, ASO 0.04 μM
Protocol: as §1

full length AR mRNA [8] = experiment: Full-length AR RNA in 22RV1 cells (complete, CSS+DHT medium); details: 48 hrs

Molecule: CNC(=O)c1ccc(N2C(=S)N(c3ccc(C#N)c(C(F)(F)F)c3)C(=O)C2(C)C)cc1F [MDV3100, 4-(3-(4-cyano-3-(trifluoromethyl)phenyl)-5,5-dimethyl-4-oxo-2-thioxoimidazolidin-1-yl)-2-fluoro-N-methylbenzamide]
- Percent expression of AR compared to the control group in 8 hours (AR mRNA [1]; 5.0 μM): 103%
- Percent expression of AR (AR mRNA [2]; 1 μM): 156%
- Percent expression of AR (AR mRNA [2]; 5.0 μM): 148%
- Percent of gene expression, Full length AR (full length AR mRNA [3]; CSS + DHT medium, 0.04 μM): 114%
- Percent of gene expression, Full length AR (full length AR mRNA [3]; CSS + DHT medium, 0.2 μM): 94%
- Percent of gene expression, Full length AR (full length AR mRNA [3]; CSS + DHT medium, 1.0 μM): 142%
- Percent of gene expression, Full length AR (full length AR mRNA [3]; CSS + DHT medium, 5.0 μM): 233%
- Percent of gene expression, Full length AR (full length AR mRNA [3]; complete medium, 0.04 μM): 136%
- Percent of gene expression, Full length AR (full length AR mRNA [3]; complete medium, 0.2 μM): 135%
- Percent of gene expression, Full length AR (full length AR mRNA [3]; complete medium, 1.0 μM): 160%
- Percent of gene expression, Full length AR (full length AR mRNA [3]; complete medium, 5.0 μM): 178%
- Percent expression of AR in LNCaP cells cultured in complete medium (AR mRNA [4]; 0.04 μM): 111%
- AR mRNA levels (% baseline value) after treatment with R1881 (AR mRNA [5]): 136 % baseline value
- Percent of gene expression, TMPRSS2 (TMPRSS2 mRNA [6]): 135%
- TMPRSS2 mRNA levels (% baseline value) after treatment with R1881 (TMPRSS2 mRNA [7]): 114 % baseline value
- Percent of gene expression, Full length AR (full length AR mRNA [8]; CSS + DHT medium, 0.04 μM): 5%
- Percent of gene expression, Full length AR (full length AR mRNA [8]; CSS + DHT medium, 0.2 μM): 11%
- Percent of gene expression, Full length AR (full length AR mRNA [8]; CSS + DHT medium, 1.0 μM): 6%
- Percent of gene expression, Full length AR (full length AR mRNA [8]; CSS + DHT medium, 5.0 μM): 18%
- Percent of gene expression, Full length AR (full length AR mRNA [8]; complete medium, 0.04 μM): 103%
- Percent of gene expression, Full length AR (full length AR mRNA [8]; complete medium, 0.2 μM): 93%
- Percent of gene expression, Full length AR (full length AR mRNA [8]; complete medium, 1.0 μM): 81%
- Percent of gene expression, Full length AR (full length AR mRNA [8]; complete medium, 5.0 μM): 83%

Molecule: GGCTACTACGCCGTCA (3-10-3 (S)-cEt gapmer, chemistry not fully specified) [ISIS 549148]
- Percent expression of AR compared to the control group in 8 hours (AR mRNA [1]; 1 μM): 111%
- Percent expression of AR (AR mRNA [2]; 5.0 μM): 111%
- Percent expression of AR in LNCaP cells cultured in CSS + DHT medium (AR mRNA [4]; CSS + DHT (1 nM) medium, 5.0 μM, 48 hrs): 111%
- Percent expression of AR in LNCaP cells cultured in complete medium (AR mRNA [4]; 0.2 μM): 111%

Molecule: TGATTTAATGGTTGCA [ISIS 569236] (cEt/MOE gapmer chemistry, further chemistry not given here) [targets intron 1]
- Percent expression of AR compared to the control group in 24 hours (AR mRNA [1]; 0.04 μM, 24 hours): 103%
